Literature values as cited in article PMC10871162.
Read-outs that look alike come from different tables or passages of the source.

Legend:
[1] = target: NMDA receptor NR1 C1 C1 (Homo sapiens) (UniProt Q05586)
[2] = target: NaV1.4 IQ motif (Homo sapiens) (UniProt P35499)
[3] = target: STRA6 BP2 peptide BP2 (Danio rerio) (UniProt F1RAX4)
[4] = target: NMDA receptor NR1 C1 C1 (Homo sapiens) (UniProt Q05586); remark: listed apart in the source
[5] = target: NMDA receptor NR1 C0 C0 (Homo sapiens) (UniProt Q05586)
[6] = target: iNOS peptide iNOS peptide (Homo sapiens) (UniProt P35228)
[7] = target: NMDA receptor NR1 C0 C0 (Homo sapiens) (UniProt Q05586); remark: listed apart in the source
[8] = target: ryanodine receptor 2 CAMBD3 (Homo sapiens) (UniProt Q92736)
[9] = target: STRA6 BP2 peptide BP2 (Danio rerio) (UniProt F1RAX4); remark: listed apart in the source
[10] = target: iNOS peptide iNOS peptide (Homo sapiens) (UniProt P35228); remark: listed apart in the source

For calmodulin (from UniProt P0DP23), the Kd [1] is listed as 158 nM, the Kd [2] is listed as 280 nM and the Kd [3] is listed as 0.9 nM. For the same substance, the Kd [4] was 2 nM, the Kd [5] was 2250 nM and the Kd [6] was 70 nM. The Kd [7] was 87 nM, the Kd [8] was 530 nM and the Kd [9] was 140 nM. The Kd [10] was 3.3 nM.
